Test: Solubility in water
Assay type: physicochemical
Experimental: Herein, the compound having “water solubility” in the present disclosure is a compound that is soluble in water at 25° C. in an amount of 0.5 mass % or more.

Work on `CC(C)(O)C(=O)c1ccc(OCCO)cc1` [IRGACURE 2959] yielded a solubility in water of 2 mass %.
